By UniProt entry, the sequences of proteins in these tests, tags left out. Where a name states a change or a piece, a line headed by the entry shows the natural chain unless it says otherwise.
UniProt P41144: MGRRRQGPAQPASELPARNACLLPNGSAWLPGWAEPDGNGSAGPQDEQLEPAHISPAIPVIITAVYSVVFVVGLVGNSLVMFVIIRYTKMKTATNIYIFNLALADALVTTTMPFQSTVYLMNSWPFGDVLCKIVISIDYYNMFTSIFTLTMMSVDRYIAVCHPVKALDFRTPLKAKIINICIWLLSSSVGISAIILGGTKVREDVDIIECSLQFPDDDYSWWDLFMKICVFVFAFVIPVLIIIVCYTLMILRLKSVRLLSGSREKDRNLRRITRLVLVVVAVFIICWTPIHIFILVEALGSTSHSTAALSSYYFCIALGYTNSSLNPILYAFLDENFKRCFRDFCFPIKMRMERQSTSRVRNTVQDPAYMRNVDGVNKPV

According to ChEMBL document CHEMBL1125721, “Highly selective kappa opioid analgesics. 4. Synthesis of some conformationally restricted naphthalene derivatives with high receptor affinity and selectivity” (1991):

Target: Kappa-type opioid receptor (Cavia porcellus) (UniProt P41144)
Test: Ratio measured as the Ki(kappa) to that of Ki(mu) values.

| Compound | Ratio |
| --- | --- |
| CN(C(=O)Cc1ccc(Cl)c(Cl)c1)C1CCCCC1N1CCCC1 (centres undefined) | 88 |
| CC1c2cccc3cccc(c23)C1C(=O)N(C)[C@H]1CCC2(CCCO2)C[C@@H]1N1CCNC1 (some centres undefined) | 227 |
| CN(C(=O)Cc1cccc2sccc12)[C@H]1CCCC[C@@H]1N1CCCC1 | 11 |
| CN(C(=O)Cc1cccc2ccccc12)[C@H]1CCC2(CCCO2)C[C@@H]1N1CCCC1 (some centres undefined) | 258 |
